Laboratory results taken from PMC2363969, “gp100/pmel17 and tyrosinase encode multiple epitopes recognized by Th1-type CD4+T cells” (British Journal of Cancer, 2001).

Tests used:
HLA-DRB1*0401 = HLA-DRB1*0401 (Homo sapiens, UniProt P01903+P01911, A100K/A169T/F76Y/I96L/K127E/L162R/M171V/N62H/P40V/Q125Y/R42H/S133A/S149N/S66Y/V115G/V209L/W38E); assay: solid-state competitive-binding assay, purified HLA-DR4
HLA-DRB1*0404 = HLA-DRB1*0404 (Homo sapiens, UniProt P01903+P01911, A100R/A169T/F76Y/I96L/K127E/L162R/M171V/N62H/P40V/Q125Y/R42H/S133A/S149N/S66Y/V209L/W38E); assay: as above

| Compound | IC50 (HLA-DRB1*0401) | IC50 (HLA-DRB1*0404) |
| --- | --- | --- |
| CSCC[C@H](NC(=O)[C@H](CCC(=O)O)NC(=O)[C@H](C)NC(=O)[C@H](CC(C)C)NC(=O)[C@@H](NC(=O)[C@@H](NC(=O)CNC(=O)[C@H](CCSC)NC(=O)[C@@H](NC(=O)[C@H](CCC(=O)O)NC(=O)[C@H](CO)NC(=O)[C@@H](NC(=O)[C@@H]1CCCN1C(=O)[C@@H](NC(=O)[C@H](CCCCN)NC(=O)[C@@H](N)CCC(=O)O)C(C)C)C(C)C)C(C)C)[C@@H](C)O)[C@@H](C)O)C(=O)N[C@@H](CO)C(=O)N[C@H](C(=O)N1CCC[C@H]1C(=O)N[C@@H](CCC(=O)O)C(=O)N[C@@H](C)C(=O)N[C@H](C(=O)O)[C@@H](C)O)[C@@H](C)O [gp100/pmel17377-398] | 7010 nM | – |
| CC[C@H](C)[C@H](NC(=O)[C@H](CO)NC(=O)[C@@H](NC(=O)[C@H](CCC(=O)O)NC(=O)[C@H](C)NC(=O)[C@@H]1CCCN1C(=O)[C@@H](NC(=O)[C@@H](N)CCSC)[C@@H](C)O)C(C)C)C(=O)N[C@H](C(=O)N[C@H](C(=O)N[C@@H](CC(C)C)C(=O)N[C@@H](CO)C(=O)NCC(=O)N[C@H](C(=O)N[C@H](C(=O)N[C@@H](C)C(=O)N[C@@H](C)C(=O)N[C@@H](CCC(N)=O)C(=O)N[C@H](C(=O)N[C@H](C(=O)N[C@H](C(=O)N[C@H](C(=O)O)[C@@H](C)O)[C@@H](C)O)[C@@H](C)O)C(C)C)[C@@H](C)O)[C@@H](C)O)C(C)C)C(C)C [gp100/pmel17400-421] | – | 17 nM |
| CC[C@H](C)[C@H](N)C(=O)N[C@@H](Cc1ccc(O)cc1)C(=O)N[C@@H](CCCNC(=N)N)C(=O)N[C@@H](CCCNC(=N)N)C(=O)N[C@@H](CCCNC(=N)N)C(=O)N[C@@H](CC(C)C)C(=O)N[C@@H](CCSC)C(=O)N[C@@H](CCCCN)C(=O)N[C@@H](CCC(N)=O)C(=O)N[C@@H](CC(=O)O)C(=O)N[C@@H](Cc1ccccc1)C(=O)N[C@@H](CO)C(=O)N[C@H](C(=O)N1CCC[C@H]1C(=O)N[C@@H](CCC(N)=O)C(=O)N[C@@H](CC(C)C)C(=O)N1CCC[C@H]1C(=O)N[C@@H](Cc1c[nH]cn1)C(=O)N[C@@H](CO)C(=O)O)C(C)C [gp100615-633 /pmel17622-640] | 51 nM | – |
| CC[C@H](C)[C@H](NC(=O)[C@H](CC(N)=O)NC(=O)[C@@H](NC(=O)[C@H](CC(=O)O)NC(=O)[C@H](CC(N)=O)NC(=O)[C@H](Cc1ccccc1)NC(=O)[C@H](CCSC)NC(=O)[C@@H]1CCCN1C(=O)[C@@H](NC(=O)[C@H](CO)NC(=O)CNC(=O)[C@H](CC(N)=O)NC(=O)[C@H](CCCCN)NC(=O)[C@H](CCSC)NC(=O)[C@H](CCC(N)=O)NC(=O)CNC(=O)[C@@H](N)Cc1ccc(O)cc1)[C@@H](C)O)[C@@H](C)CC)C(=O)N[C@@H](Cc1ccc(O)cc1)C(=O)N[C@@H](CC(=O)O)C(=O)N[C@@H](CC(C)C)C(=O)O [tyrosinase156-175] | 1390 nM | – |
